Literature values, collected in patent publication US12576169B2, “Silicon-fluoride acceptor substituted radiopharmaceuticals and precursors thereof” (Technische Universität München, priority 2019, dated 2026).

Protein sequences, listed by entry. Tags and fused reporters are not part of them. Residues count along the entry.
UniProt P02768, 25-609: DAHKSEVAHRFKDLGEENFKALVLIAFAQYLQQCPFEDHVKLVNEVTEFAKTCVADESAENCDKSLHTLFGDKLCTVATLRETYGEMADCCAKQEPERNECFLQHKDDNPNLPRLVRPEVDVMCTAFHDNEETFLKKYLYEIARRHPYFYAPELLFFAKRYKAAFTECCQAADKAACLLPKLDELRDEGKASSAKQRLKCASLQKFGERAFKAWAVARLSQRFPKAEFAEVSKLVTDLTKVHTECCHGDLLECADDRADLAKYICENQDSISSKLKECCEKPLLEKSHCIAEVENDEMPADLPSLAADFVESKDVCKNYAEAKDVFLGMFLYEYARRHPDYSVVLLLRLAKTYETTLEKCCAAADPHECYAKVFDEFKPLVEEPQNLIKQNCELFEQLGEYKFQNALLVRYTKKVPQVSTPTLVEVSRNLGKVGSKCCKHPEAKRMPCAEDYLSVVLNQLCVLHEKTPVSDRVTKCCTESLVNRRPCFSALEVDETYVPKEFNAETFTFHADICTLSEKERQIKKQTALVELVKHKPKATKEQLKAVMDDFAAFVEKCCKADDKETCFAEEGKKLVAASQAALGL

Target: HSA (Homo sapiens, UniProt P02768)
Settings: cited from earlier work

**Q.** Which “Lit. HSA binding” value (literature values (Yamazaki, Kanaoka 2004)) does the source give for NC(=O)N1c2ccccc2C=Cc2ccccc21 [Carbamazepine] here?
**A.** 75.00%

**Q.** What about the “Log K HSA” value (logarithmic K of HSA binding literature values) of the same molecule?
**A.** 0.4601
